Literature values in patent US12157750B2, “Bright targetable red CA2+ indicators” (HOWARD HUGHES MEDICAL INSTITUTE, priority 2019, dated 2024).

Tests used:
[1] = known indicator, cited from earlier work
[2] = known indicator, literature value (ref. 15); saturating Ca2+; cited from earlier work

In the case of Oregon Green BAPTA-1 [Compound 1], the λem ([1]; literature value (ref. 15)) is listed as 523 nm, the λmax ([1]; literature value (ref. 15)) is listed as 492 nm and the “excitation maxima (λex)” value ([1]; literature value) is listed as 492 nm. For the same substance, the ϕsat [2] was 0.70.
